Measurements reported in patent US9763910B1, “Combination therapy for treating cancer” (Huanggang Normal University, priority 2016, dated 2017).

What was measured:
[1] = system: CL1-5 lung cancer cells; assay: Apoptosis in CL1-5 cells by flow cytometry; assay type: cell-based, human; details: 24 hs; 6.3 μmol/L 5-demethylnobiletin and/or 10 nmol/L docetaxel
Method: (§1) All treatment drugs were prepared in a 10% DMSO solution.
(§2) The treated cells were incubated for 24 hs before collected in a centrifuge tube. The cells were then washed with PBS at 4° C. and n mixed with 70% ethanol pre-cooled at −20° C. before kept at 4° C. overnight. Next, the cells were centrifuged at 1000 rpm to remove ethanol and the cell density was adjusted to (1-2)×10^6 cells/ml by add PBS. Following adding PI and DNase-free RNase to respectively reach final concentrations of 50 μg/ml and 50 µg/ml, the cells were stained for cell cycle and apoptosis studies by flow cytometry. All studies were repeated 3 times and the averages were calculated.

[2] = system: CL1-5 lung cancer cells; assay: Cell cycle distribution in CL1-5 cells by flow cytometry (PI staining); assay type: cell-based, human; details: 24 hs; 6.3 μmol/L 5-demethylnobiletin and/or 10 nmol/L docetaxel
Method: as §1, §2

[3] = system: CL1-5 human lung cancer cells engrafted in BALB/c nude mice; assay: Tumor growth in CL1-5 cell-engrafted BALB/c nude mice; details: 25 μmol docetaxel and/or 15.5 μmol 5-demethylnobiletin once every 2 days for 14 days, sacrificed after another 14 days

| SMILES | percentage of apoptotic cells [1] | G2/M phase cells, share of total cells [2] | average tumor size [3] |
| --- | --- | --- | --- |
| COc1ccc(-c2cc(=O)c3c(O)c(OC)c(OC)c(OC)c3o2)cc1OC [5-Hydroxy-6,7,8,3′,4′-pentamethoxyflavone] | 9.7% | 31.3% | – |
| CC(=O)O[C@@]12CO[C@@H]1C[C@H](O)[C@@]1(C)C(=O)[C@H](O)C3=C(C)[C@@H](OC(=O)[C@H](O)[C@@H](NC(=O)OC(C)(C)C)c4ccccc4)C[C@@](O)([C@@H](OC(=O)c4ccccc4)[C@H]21)C3(C)C [docetaxel, 1,7β,10β-trihydroxy-9-oxo-5β,20-epoxytax-11-ene-2α,4,13α-triyl 4-acetate 2-benzoate 13-{(2R,3S)-3-[(tert-butoxycarbonyl)amino]-2-hydroxy-3-phenylpropanoate}] | 7.8% | 23.5% | 1230 mm^3 |
